Legend:
[1] = test system: DU145_CxR cells
[2] = test system: PC3_CxR cells
[3] = test system: PC3_CxR cells; assay: Tumor size in SCID mice implanted with PC3_CxR cells (Example 5); conditions: PC3_CxR implant, cabazitaxel 5 mg/kg i.p. once a week, three weeks, FIG. 12
[4] = test system: MCF-7 cells; assay: Cell viability of MCF-7 cells with paclitaxel or docetaxel plus spiradoline (Example 7); conditions: MCF-7 cells not drug resistant, 3 pmol/L spiradoline as printed, 48 h
[5] = test system: MES-SA cells; assay: Cell viability of MES-SA cells with paclitaxel or docetaxel plus spiradoline (Example 7); conditions: MES-SA cells not drug resistant, 3 pmol/L spiradoline as printed, 48 h
[6] = test system: MCF7-TxR cells; assay: Cell viability of paclitaxel-resistant MCF7-TxR cells with paclitaxel or docetaxel plus spiradoline (Example 7); conditions: paclitaxel-resistant MCF7-TxR cells, 3 pmol/L spiradoline as printed, 48 h
[7] = test system: PC3_TxR cells; assay: Cell viability of paclitaxel- and docetaxel-resistant PC3_TxR cells with taxane plus spiradoline (Examples 2, 3)
[8] = test system: MES-SA/Dx5 cells; assay: Cell viability of multidrug-resistant MES-SA/Dx5 cells with paclitaxel or docetaxel plus spiradoline (Example 7); conditions: 3 pmol/L spiradoline as printed, 48 h
[9] = test system: DU145_TxR cells; assay: Cell viability of paclitaxel- and docetaxel-resistant DU145_TxR cells with cabazitaxel plus combination compound (Example 1)
[10] = calculated from the graphs, FIG. 5
[11] = calculated from the graphs, FIG. 8

For `CN(C(=O)Cc1ccc(Cl)c(Cl)c1)[C@H]1CC[C@@]2(CCCO2)C[C@@H]1N1CCCC1`, the “efficacy of cabazitaxel used in combination (cell viability)” value ([1]; cabazitaxel 0-100 nmol/L, 48 h, compared with other combination compounds, FIG. 4) was “higher efficacy”, the “IC50 of cabazitaxel used in combination, as compared with DMSO” value (“IC50 … compared with DMSO” below) [1, 10] was “markedly lower” and the “IC50 … compared with DMSO” value [2, 11] was “markedly lower”. For the same compound, the “efficacy of cabazitaxel (cell viability) in combination with spiradoline” value ([2]; spiradoline 0.1, 1, 10 μmol/L vs DMSO, FIG. 7) was “increased depending on the concentration of spiradoline”, the “tumor size, spiradoline and cabazitaxel in combination vs only spiradoline or cabazitaxel” value ([3]; spiradoline 2 or 5 mg/kg i.p. twice a week) was “smaller” and the “tumor size, 5 mg/kg spiradoline and cabazitaxel vs 2 mg/kg spiradoline and cabazitaxel” value ([3]; spiradoline i.p. twice a week) was “smaller”. The “efficacy of paclitaxel (cell viability) used in combination with spiradoline vs DMSO” value (“efficacy of paclitaxel … vs DMSO” for short) ([4]; FIG. 13) was “substantially the same as with DMSO”, the “efficacy of docetaxel (cell viability) used in combination with spiradoline vs DMSO” value (“efficacy of docetaxel … vs DMSO” below) ([4]; FIG. 14) was “substantially the same as with DMSO” and the “efficacy of paclitaxel … vs DMSO” value ([5]; FIG. 15) was “substantially the same as with DMSO”. The “efficacy of docetaxel … vs DMSO” value ([5]; FIG. 16) was “substantially the same as with DMSO”, the “efficacy of paclitaxel … vs DMSO” value ([6]; FIG. 13) was “higher than that with DMSO” and the “efficacy of docetaxel … vs DMSO” value ([6]; FIG. 14) was “higher than that with DMSO”. The “IC50 … compared with DMSO” value [7, 11] was “markedly lower”, the “efficacy of cabazitaxel (cell viability) in combination with spiradoline” value ([7]; spiradoline 0.1, 1, 10 μmol/L vs DMSO, FIG. 6) was “increased depending on the concentration of spiradoline” and the “efficacy of paclitaxel (cell viability) in combination with spiradoline” value ([7]; spiradoline 3, 10 μmol/L vs DMSO, FIG. 9) was “increased depending on the concentration of spiradoline”. For the same compound, the “efficacy of docetaxel (cell viability) in combination with spiradoline” value ([7]; spiradoline 3, 10 μmol/L vs DMSO, FIG. 10) was “increased depending on the concentration of spiradoline”, the “efficacy of paclitaxel … vs DMSO” value ([8]; FIG. 15) was “higher than that with DMSO” and the “efficacy of docetaxel … vs DMSO” value ([8]; FIG. 16) was “higher than that with DMSO”. The “efficacy of cabazitaxel used in combination (cell viability)” value ([9]; cabazitaxel 0-100 nmol/L, 48 h, compared with other combination compounds, FIG. 3) was “higher efficacy” and the “IC50 … compared with DMSO” value [9, 10] was “markedly lower”.
